Reference: patent publication US9345786B2, “Maytansinoid derivatives” (priority 2013, dated 2016)

Test system: A549 cells
Assay: growth inhibition of A549 cells (CCK-8)
Assay type: cell-based
Conditions: A549 (Kras mutation, Her2 negative), 72 hours
Description: Briefly, cells were detached by using 0.25% (vol/vol) trypsin and suspended in complete medium. Aliquots of cells were plated into 96-well microdilution plates. […] After 72 hours, plates were washed twice with PBS (pH 7.5), and analyzed for relative cell proliferation with CCK-8 reagent.
After 72 hours, plates were washed twice with PBS (pH 7.5), and analyzed for relative cell proliferation with CCK-8 reagent.

D-Lmcc-Bat0606
inhibition of growth of A549 cells: did not inhibit
